According to patent US9233167B2, “Oligomer-opioid agonist conjugates” (NEKTAR THERAPEUTICS, priority 2007, dated 2016):

Each substance was assayed against recombinant human kappa opioid receptor (Homo sapiens (Human), UniProt P41145).
Assay type: binding

Row | Substance | Ki [µM]
1 | α-6-mPEG9-O-codeine | 72.2
2 | α-6-mPEG3-O-codeine | 36.5
3 | α-6-mPEG7-O-codeine | 108
